scFv variants of Ab-14 (light chain) against a SARS-CoV-2 spike peptide

The measurements come from Li et al. 2023 (doi:10.1038/s41467-023-39022-2) through the FLAb antibody collection.

Target peptide (SARS-CoV-2 spike, HR2 region): PDVDLGDISGINAS

The variants keep the heavy chain, the linker and the frameworks of Ab-14 (scFv order VH, a 15-residue (Gly4Ser)3 linker, VL).
VH: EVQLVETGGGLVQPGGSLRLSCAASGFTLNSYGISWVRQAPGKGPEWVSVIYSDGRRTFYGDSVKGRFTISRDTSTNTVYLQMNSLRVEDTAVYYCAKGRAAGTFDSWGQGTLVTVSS
VL: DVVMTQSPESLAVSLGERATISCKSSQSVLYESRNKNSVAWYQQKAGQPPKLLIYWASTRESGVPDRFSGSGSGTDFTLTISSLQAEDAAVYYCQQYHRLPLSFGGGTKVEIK

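Phage display of a naive human antibody library on the peptide gave the parent. This is the validation round: designs drawn from the data on random variants, tested in the same kind of assay. Their group label is 14L_En_Gibbs (En: ensemble of fine-tuned language models; Gibbs: Gibbs sampling). In AlphaSeq, yeast of one mating type display the scFv and yeast of the other type display the target. Binding brings cells together so that they mate, and sequencing counts the barcode pairs among the diploids. A regression on co-assayed BCL2-family reference pairs converts the normalised counts of each replicate to an apparent Kd. There are six technical replicates.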

Variants are written as CDR1, CDR2 and CDR3 of the light chain (limits as in the source). Parent: KSSQSVLYESRNKNSVA, WASTRES, QQYHRLPLS.
Numbers give log10(Kd / nM), so 0 is 1 nM and 3 is 1 µM. Smaller is tighter.
A pair that was not seen in that replicate is written "ND"; this usually means weak binding, but a binder can also be missed.

CDR-L1	CDR-L2	CDR-L3	log10 Kd (nM) by replicate	signal with controls
QLFHRWGQLDNIQYNVA	NATTVID	QQYMRLPLT	-0.22 / 0.61 / 0.93 / 0.97 / 0.48 / 0.51	1 of 18 (1.56)
RLGLNFSWPGNARQSVA	EIQKAID	QQYAHLPLS	ND / 1.93 / 2.68 / ND / 3.82 / 2.51	2 of 18 (2.79)
NLQNIGSELSVWKRAIA	DANIRES	QQYFRLPLL	0.11 / 0.06 / -0.09 / -0.10 / -0.02 / 0.17	2 of 18 (2.64)
HIDDFEFSEGEKWNAIA	QDATRLQ	QSYQRLPLA	ND / ND / 2.40 / 4.75 / ND / 2.29	3 of 18 (2.63)
VFQQQWDGHTLTNSSVA	NVDERME	QQYYRLPLM	0.36 / 0.26 / 0.49 / 0.30 / 0.20 / 0.34	3 of 18 (3.52)
HIDQQTSYDNGEDRAIA	DVTIRDW	QQYARLPLL	1.82 / 1.84 / 0.93 / 1.08 / 1.09 / 1.87	0 of 18
QLQLVQQGDTISEYSVA	HAEVSGR	QQYSQLPLI	ND / ND / ND / ND / ND / ND	0 of 18
RFPEHLLMLESKIYNIA	NATKTME	QQYFRLPLV	0.89 / 0.23 / 0.31 / 0.32 / 0.91 / 0.44	1 of 18 (4.00)
SFSLESLGSKNEEASIA	STETLMS	QDYARLPLA	1.35 / 1.09 / 0.98 / 0.93 / 0.62 / 1.05	0 of 18
QLMFKEANGMNNAYNVA	EAEYSGT	QQYSQLPLG	ND / ND / ND / ND / ND / ND	0 of 18
AVSIEHTEGTRYWNAIA	DLSQRNN	QQYDQLPLS	ND / 2.39 / ND / 1.64 / ND / ND	0 of 18
HMQNEWQGDSRQENNVA	ETTVVCT	QQYATLPLT	1.50 / 3.31 / 1.71 / 1.34 / 2.02 / 2.31	0 of 18
MLAQPQKELGYAKDAVA	DGSIRLG	QQYHRLPLV	0.26 / 0.06 / 0.22 / -0.03 / 0.15 / 0.35	0 of 18
HLAVNMTYLDSSKYHVA	NASDREP	QYYNRLPLS	ND / ND / ND / ND / 2.42 / 2.89	3 of 18 (2.15)
VMFMGLYWGNIEHQAIA	NGTMREK	QQYHRLPLQ	1.25 / 1.91 / 1.01 / 1.25 / 2.62 / 1.67	0 of 18
NVGNEDPGQNYMHDSIA	GRSLRAE	QQYWRLPLL	-0.05 / -0.04 / -0.08 / -0.38 / -0.33 / -0.08	0 of 18
HLKTMPGEGPQEYSSIA	HAELRTP	QQYYRLPLM	0.70 / 0.60 / 1.04 / 0.22 / 0.39 / 0.60	0 of 18
NMNVGLNFGKIQHQAIA	EVEKRES	QQYARLPLT	0.45 / 0.34 / 0.50 / 0.34 / 0.18 / 0.64	0 of 18
HIQEVDNQVENKYGNVA	DASEYLA	QQYFQLPIS	ND / 2.13 / ND / 2.19 / 1.93 / 2.19	2 of 18 (2.26)
KLRLHNLDFYEVENSIA	GVSNRAH	QQYYRLPLN	2.79 / 2.14 / 2.33 / 3.38 / 2.15 / 2.11	0 of 18
DLTVNDNGISQMESSIA	SGVEKCT	QQYSRLPLA	0.57 / -0.18 / -0.03 / -0.03 / -0.13 / 0.11	2 of 18 (3.20)
KLEDQMQTSIASDNSVA	DTNMGHE	QQYGRLPLV	0.56 / 0.68 / 0.70 / 0.46 / 0.69 / 1.02	2 of 18 (3.62)
VGDESYQQGVHEMNNIA	NGDQKVD	QQYYRLPLL	0.49 / 0.33 / 0.11 / 0.35 / 1.17 / 0.59	1 of 18 (2.67)
TLYMGMTEARDSKHAIA	DNNERDR	QQYHRLPLV	1.30 / 1.26 / 0.65 / 0.82 / 1.52 / 1.57	1 of 18 (3.72)
NLNDSPMYAQIMKDAIA	QETQRNE	QQYAKLPLS	1.64 / 0.85 / 1.14 / 1.34 / 0.76 / 1.35	0 of 18
KVAQGIYEGKRHSHNIA	EVSHLCD	QQYSRLPLE	1.04 / 0.94 / 0.83 / 0.94 / 1.51 / 1.11	3 of 18 (2.42)
NFSMSAAAFVNEDSSIA	DAEISYD	QQYHRLPLV	1.96 / 1.62 / 1.34 / 1.96 / 1.91 / 2.60	0 of 18
ALRGVGYDEQVKHSAIA	DAEHVNQ	QQYSMLPLS	0.52 / 0.50 / 0.49 / 0.39 / 0.58 / 0.67	0 of 18
NLVEDEGTNQTKMGNIA	SVDQRMD	QQYQRLPLI	0.76 / 0.62 / 0.72 / 0.28 / 0.57 / 0.61	1 of 18 (3.02)
FLAMGSYQKYRHENNIA	EANMRAQ	QQYNRLPFQ	0.10 / 0.28 / 0.25 / 0.20 / 0.20 / 0.36	0 of 18
RMDVIGQESVRQYNAVA	NGETRTA	QHYNRLPLE	1.18 / 2.24 / 0.83 / 1.14 / 1.10 / 1.03	0 of 18
SMETHSQDNRLDWSAVA	EAHTIYQ	QQYARLPLS	1.91 / 1.56 / 1.40 / 2.31 / 2.21 / 1.89	1 of 18 (3.15)
QLRDAIWAEGMNKQSIA	ENEVSKD	QQYNRLPLS	1.80 / 1.92 / 1.56 / 1.77 / 1.70 / 2.34	1 of 18 (3.75)
SISVFQNMSTQGNNSIA	GAEQKVH	QQYMRLPLY	1.25 / 0.26 / 0.48 / 0.12 / 0.43 / 0.48	0 of 18
SLEMFTGMLNMYASSIA	NAHCLVQ	QQYYRLPIS	ND / ND / 1.62 / ND / ND / ND	0 of 18
KLVGVDDNDNNPMSAIA	DVSTLDN	QQYHRLPLD	0.72 / 0.75 / 0.54 / 0.25 / 0.45 / 0.25	1 of 18 (2.50)
KLWAYLQGLERNMQNIA	DGIYRST	QQYDRLPLS	0.72 / 0.53 / 0.80 / 0.48 / 0.63 / 0.75	3 of 18 (3.05)
KIYQLGLGSQKIMRNIA	ETSTREL	QSYNRLPLS	0.70 / 0.82 / 0.10 / 0.09 / 0.29 / 0.32	0 of 18
VFGGQWGLGTTQNSSVA	NVSETML	QQYNRLPLM	1.65 / 1.52 / 1.03 / 1.39 / 1.49 / 1.38	1 of 18 (2.32)
NITYAAEQLQRIDSSVA	AGSARCR	QQYYRLPLS	0.91 / 0.18 / 0.99 / 0.32 / 0.63 / 0.43	1 of 18 (3.09)
FFGYDIFQENMKAKSIA	EANMRVY	QQYAILPLT	1.08 / 1.49 / 0.66 / 0.94 / 0.72 / 0.82	1 of 18 (2.39)
KLTISGTLTHEKAFSIA	NGTCKAY	QQYAHLPLS	1.97 / 1.59 / 1.69 / 1.38 / 1.66 / 1.98	1 of 18 (4.10)
MIDMEEAPNSQKASSIA	QGGLRAK	QQYNRLPLC	0.55 / 0.36 / 0.27 / 0.20 / 0.42 / 0.30	0 of 18
QLDHQLQYMDANKQSVA	EMTEVTT	QQYHRLPLE	ND / ND / ND / ND / ND / ND	0 of 18
NLNDSDMYASQMTDNIA	QDTQRNE	QQYAKLPLS	0.72 / 0.92 / 1.20 / 1.28 / 1.04 / 1.05	1 of 18 (1.29)

Picked from the list: the 7 lowest averages where every replicate gave a value.

CDR-L1,CDR-L2,CDR-L3,log10 Kd (nM) by replicate,signal with controls
NVGNEDPGQNYMHDSIA,GRSLRAE,QQYWRLPLL,-0.05 / -0.04 / -0.08 / -0.38 / -0.33 / -0.08,0 of 18
NLQNIGSELSVWKRAIA,DANIRES,QQYFRLPLL,0.11 / 0.06 / -0.09 / -0.10 / -0.02 / 0.17,2 of 18 (2.64)
DLTVNDNGISQMESSIA,SGVEKCT,QQYSRLPLA,0.57 / -0.18 / -0.03 / -0.03 / -0.13 / 0.11,2 of 18 (3.20)
MLAQPQKELGYAKDAVA,DGSIRLG,QQYHRLPLV,0.26 / 0.06 / 0.22 / -0.03 / 0.15 / 0.35,0 of 18
FLAMGSYQKYRHENNIA,EANMRAQ,QQYNRLPFQ,0.10 / 0.28 / 0.25 / 0.20 / 0.20 / 0.36,0 of 18
VFQQQWDGHTLTNSSVA,NVDERME,QQYYRLPLM,0.36 / 0.26 / 0.49 / 0.30 / 0.20 / 0.34,3 of 18 (3.52)
MIDMEEAPNSQKASSIA,QGGLRAK,QQYNRLPLC,0.55 / 0.36 / 0.27 / 0.20 / 0.42 / 0.30,0 of 18

The authors averaged sequences with at least three values out of six and counted those with two or fewer as poor binders.
Background: pairings of all light chain designs with three empty control strains gave a value in 4% of cases (median 2.64, 5th percentile 1.59). Values in that range, when seen in few replicates, are hard to tell from nonspecific mating. For each scFv, signals with the empty controls are counted beside the result, with their mean in brackets.
A sequence measured in both rounds can read differently, since the two assays cover different ranges.
Of ten entries with the parent sequence, four were seen in most replicates (averages 0.34 to 2.37), three in one and three in none, so single entries are noisy.